Columns and labels:
[1] = tested on: β2 -stimulation versus β1 -stimulation; assay: Bronchial selectivity: heart rate increasing dose ("ED 100") divided by bronchospasmolytic dose (ED 50); type: in vivo; conditions: heart rate ED 100 (mice, i.v.) / bronchospasmolytic ED 50 (guinea pig, i.v.)
Experimental: The ratio, heart rate increasing dose ("ED 100") divided by bronchospasmolytic dose (ED 50), is a measure of the degree of selectivity of the bronchospasmolytic action. This ratio was calculated for a number of the compounds of the invention and for some of the most relevant compounds of reference.

in vivo = conditions: mouse

Compound: CC(C)NCC(O)c1ccc(O)c(O)c1 (stereo not drawn) [Isoprenaline, reference compound]
- Ratio "ED 100"/ED 50 [1]: 0.06
- LD50 (in vivo; iv): 70 mg/kg
- LD50 (in vivo; po): > 2000 mg/kg

Source: patent publication US4072760A, “Bronchospasmolytic phenylethanolamines” (Pharmacia AS, priority 1974, dated 1978)
